Test results from patent US20090030024A1, “THIAZOLES AS FUNGICIDES” (priority 2005, published 2009).
Marks after values point to notes of the source that are not given here.

Experiment: logP determination by retention times (calibration with alkan-2-ones)
Details: linear gradient 10% to 95% acetonitrile
[1] = values marked *: HPLC on reversed-phase C 18, 40° C., mobile phase 0.1% aqueous formic acid and acetonitrile
[2] = * HPLC reversed-phase C18, 40° C., mobile phase 0.1% aqueous formic acid and acetonitrile

Substance	logP [1]	logP [2]	also measured
1-(4-{[2-(dimethylamine)-8H-[1,3]thiazole[4′,5′:4,5]cyclopenta[1,2-d]pyrimidin-5-yl]amino}phenyl)pyrrolidin-2-one [Example 870]	1.37*	–	–
2-methyl-N-(3,4,5-trimethoxyphenyl)-4,5-dihydro[1,3]thiazole[4,5-h]quinazoline-8-amine [Example 94]	–	–	logP (HPLC, reversed-phase C 18, EEC Directive 79/831 Annex V.A8, method *: 40° C., 0.1% aqueous formic acid and acetonitrile): 2.18*
N2-tert-butyl-N8-phenyl-4,5-dihydro[1,3]thiazole[4,5-h]quinazoline-2,8-diamine [Example 918]	2.15*	–	–
N8-(4-fluorophenyl)-N2,N2-dimethyl-4,5-dihydro[1,3]thiazole[4,5-h]quinazoline-2,8-diamine [Example 610]	–	1.78*	–
N8-(4-fluorophenyl)-N2-(2-methoxyethyl)-N2-methyl-4,5-dihydro[1,3]thiazole[4,5-h]quinazoline-2,8-diamine [Example 773]	–	1.94*	–
N-(3-methoxyphenyl)-2-methyl-4,5-dihydro[1,3]thiazole[4,5-h]quinazoline-8-amine [Example 444]	–	2.59*	–
